According to US20200063214A1, “METHODS OF IDENTIFYING PATIENTS LIKELY TO BENEFIT FROM TREATMENT WITH A TELOMERASE INHIBITOR” (Geron Corporation, priority 2018, published 2020):

Assay: Phase 2 study: adverse events on treatment
Format: in vivo, human
From the text: Diagnosis of primary, post-essential thrombocythemia, or post-polycythemia vera MF was required; other eligibility criteria included measurable splenomegaly (by magnetic resonance imaging [MRI]), active MF-related systemic symptoms and platelet count ≥75×10^9/L. Primary endpoints were: spleen response rate (% achieving ≥35% spleen volume reduction [SVR] by MRI at week 24); and symptom response rate (% achieving ≥50% reduction in total symptom score [TSS] per the Myelofibrosis Symptom Assessment Form (MFSAF) v2 at week 24). Key secondary endpoints included safety, overall survival (OS), treatment response, molecular response, and pharmacokinetic and pharmacodynamic relationships.

DNA, d(3′-amino-3′-deoxy-P-thio) (T-A-G-G-G-T-T-A-G-A-C-A-A), 5′-[O-[2-hydroxy-3-(hexadecanoylamino)propyl] phosphorothioate], sodium salt (1:13) [imetelstat sodium]
Grade 3/4 neutropenia (9.4 mg/kg): 34% | Grade 3/4 thrombocytopenia (9.4 mg/kg): 42% | anemia, adverse event (all grades) (9.4 mg/kg): 44% | nausea, adverse event (all grades) (9.4 mg/kg): 34% | neutropenia, adverse event (all grades) (9.4 mg/kg): 36% | thrombocytopenia, adverse event (all grades) (9.4 mg/kg): 49% | time to resolution of most cytopenias (both arms): ≤ 4 weeks | Grade 3/4 LFT elevations (on study, both arms): 7 patients
